Reference: PubChem BioAssay AID2098 (Broad Institute, 2009)
The list shows a part of the results, in another mix than the full data. Some results for these compounds are left out of this collection, so the calls shown say nothing about other tests. Activity calls are given as the source filed them.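 Rule for the calls: active = more than half of replicate wells show activity change below -50%, luminescence cut by over half; inconclusive = some wells, but at most half, below -50%; inactive = no replicate well below -50%.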

Experiment: blocking HSF1-driven luciferase expression – cell-based, NIH3T3, luminescence, primary screen (AID 2098);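 note: luciferase reports HSF-1 transcriptional activity via heat shock element; 0% = median of DMSO wells and -100% = zero luminescence signal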
Conditions: NIH3T3-HGL HSE-luciferase, MG132-induced, luminescence 8 h; stronger effect = lower value; screened at 7.5 µM (by protocol)

Compound | activity change, negative = inhibition
COc1cc(SC)ccc1C(=O)NCC1(N(C)C)CCCCC1 | inactive: -4.37%
CCN(CC)CC(C)C(C)OC(=O)C(O)(c1ccccc1)c1ccccc1 (centres undefined) | inactive: 5.15%
CC(C)N1C(=O)CC2(CCN(CCOC(=O)C(O)(c3ccccc3)c3ccccc3)CC2)C1=O | inactive: 5.43%
Cc1ccc(C(=O)NCC2(N3CCCCC3)CCCCC2)cc1 | inactive: 0.731%
O=C(NCC1(N2CCCCC2)CCCCC1)c1cc([N+](=O)[O-])ccc1Cl | inactive: 1.59%
CN1[C@@H]2CC[C@H]1CC(OC(=O)C(O)(c1ccccc1)c1ccccc1)C2 (some centres undefined) | inactive: -16.9%
O=C(NCC1(N2CCCCC2)CCCCC1)c1cc(F)c(F)cc1Cl | inactive: 4.59%
C=CCN1CCN(CCOC(=O)C(O)(c2ccccc2)c2ccccc2)CC1 | inactive: -6.89%
COc1ccc(C(=O)NCC2(N(C)C)CCCCC2)cc1 | inactive: -2.72%
O=C(NCC1(N2CCCCC2)CCCCC1)c1cccc(Br)c1 | inactive: -3.9%
CCN1CCCC(OC(=O)C2(O)c3ccccc3C=Cc3ccccc32)C1 (centres undefined) | inactive: -24.7%
Cc1cc(C(=O)NCC2(N3CCCCC3)CCCCC2)ccc1[N+](=O)[O-] | inactive: -8.77%
CN(C)c1ccc(C(=O)NCC2(N(C)C)CCCCC2)cc1 | inactive: -1.74%
CN(C)C1CCCC1OC(=O)C(O)(c1ccccc1)c1ccccc1 (centres undefined) | inactive: 5.12%
Cc1ccccc1C(=O)NCC1(N2CCCCC2)CCCCC1 | inactive: 5.01%
COc1ccc(Cl)cc1C(=O)NCC1(N(C)C)CCCCC1 | inactive: -10.6%
COc1cccc(C(=O)NCC2(N3CCCCC3)CCCCC2)c1 | inactive: -8.16%
O=C(NCC1(N2CCCCC2)CCCCC1)c1cccc(Cl)c1 | inactive: -6.95%
CN(C)C1(CNC(=O)c2ccc(Br)cc2)CCCCC1 | inactive: -0.567%
COc1cc(C(=O)NCC2(N(C)C)CCCCC2)c([N+](=O)[O-])cc1OC | inactive: 38.5%
COc1ccc(Br)c(C(=O)NCC2(N3CCCCC3)CCCCC2)c1 | inactive: -5.99%
CC(C)Oc1ccc(C(=O)NCC2(N(C)C)CCCCC2)cc1 | inactive: -1.84%
CN(C)c1cccc(C(=O)NCC2(N(C)C)CCCCC2)c1 | inactive: -8.34%
O=C(OC1CN2CCC1CC2)C(CO)(c1ccccc1)c1ccccc1 (centres undefined) | inactive: -7.97%
